PglD DTNB: inhibitors of Campylobacter jejuni PglD acetyltransferase; purified PglD enzyme, DTNB colorimetric CoA detection; inhibition, % at 12.5 µM; 0.098% of 360,000 active; in the data active = inhibition above about 16%, passing the limit was not always enough; inconclusive = no clear call, values can overlap the other calls
UUG fidelity: yeast start codon fidelity modulation; activity score, % at 18.7 µM; actives 0.13% (n = 350,000); S. cerevisiae UUG-firefly luciferase reporter, luminescence/redox ratio; AID 602363;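 active means replicate mean at a twofold rise or more, about +100% in these data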;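 further: firefly luciferase made from a UUG start codon reports start codon fidelity; reporter light over untreated wells divided by growth signal over untreated wells; some hits fall short of that in this replicate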
Wnt bcat act: activates Wnt/beta-catenin signaling in a reporter cell assay | activator, plate reader | activation, % at 9.35 µM | 1.2% of 300,000 active | AID 743398; in the data active = activation above about 30%, passing the limit was not always enough; inconclusive = no clear call, values can overlap the other calls
miR-122 sensor: inhibitors of miR-122 in Huh7 cells | Huh7 miR-122 Renilla luciferase sensor, 48 h; neutral wells = 0, positive control = 100 | activation (reporter increase), % at 12.5 µM | 0.3% of 340,000 active | AID 602342;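 active = mean replicate activation score at least 90 and every replicate individually at or above 90; inconclusive = only one of the two criteria met; inactive = neither criterion met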;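 note: higher luciferase means less miR-122 activity so hits act as miR-122 inhibitors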
esBAF inh: blocks esBAF chromatin remodeling in mouse ES cells. Bmi1-luciferase knock-in reporter, 24 h; 100% = twice the neutral-well signal. reporter increase, % at 12.5 µM. 2% of 350,000 active; in the data active = activation above about 40%; inconclusive = no clear call, values can overlap the other calls;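 note: a rise in the Bmi1 reporter signal indicates esBAF inhibition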
MITF act: activators of MITF-driven TRPM1 promoter activity in SK-MEL-5 cells | SK-MEL-5 TRPM1-promoter luciferase, 24 h; % of positive control, neutral wells = 0 | activation, % at 12.5 µM | 0.75% of 300,000 active;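 active = mean activation of at least 80% with every replicate also reaching 80%; inconclusive = mean reaches 80% but some replicate falls short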
Numbers stand for hits; – = inactive; ? = inconclusive; · = no result given; [ ] = another dose, or the depositor's remark. This is a sample that favours compounds with a hit; in the whole collection about 2.8% have one here.

SMILES | PglD DTNB | UUG fidelity | Wnt bcat act | miR-122 sensor | esBAF inh | MITF act
C[C@@H]1CN([C@@H](C)CO)C(=O)c2c(c3ccccc3n2C)-c2ccccc2CO[C@@H]1CN(C)S(=O)(=O)c1ccc(Cl)cc1 | – | – | · | · | – | ·
COc1ccc(NC(=O)N(C)C[C@H]2Oc3ccc(NC(=O)C4CCCCC4)cc3CC(=O)N([C@@H](C)CO)C[C@@H]2C)cc1 | – | – | · | – | – | ·
CN(C)/N=C/C=C1\CCC/C(=C/c2cccs2)C1=O | · | · | 52 | – | – | –
CN=C1S/C(=C\c2ccc(N3CCCC3)c(F)c2)C(=O)N1C | – | – | – | – | – | –
CN=C1S/C(=C\c2ccc(N3CCOCC3)c(F)c2)C(=O)N1C | – | – | – | – | 71 | ·
COc1cc2sc3cc(NCC[C@@H]4CCCN4C)ccc3c(=O)c2cc1OC | – | – | – | – | 53 | 97
COc1cc2sc3cc(NCc4ccc(C)o4)ccc3c(=O)c2cc1OC | – | – | ? | – | · | 109
COc1ccccc1NC(=O)N1C[C@H](O)COC[C@H]2O[C@H](CC(=O)NCc3ccccc3)CC[C@@H]21 | – | · | · | – | – | ·
CCOc1ccc(N=C2Sc3nc4ccc(C)cc4cc3CN2CCOC)cc1 | · | · | – | – | 54 | –
COCCN1Cc2cc3cc(C)ccc3nc2SC1=Nc1cccc(OC)c1 | · | · | – | – | 49 | –
C[C@@H]1CN([C@H](C)CO)C(=O)c2cc(-c3ccccc3)cnc2O[C@H]1CN(C)C(=O)c1ccccc1F | – | – | · | · | – | ·
Fc1ccc(/C=N/Nc2ccccn2)cc1 | · | · | ? | · | · | –
Clc1ccc(/C=N/Nc2ccccn2)cc1 | – | – | 56 | – | 43 | –
Brc1ccc(/C=N/Nc2ccccn2)cc1 | – | – | – | – | 70 | –
Cc1ccc(/C=N/Nc2ccccn2)s1 | – | – | – | – | 57 | 104
COc1ccc(/C=N/Nc2ccccn2)cc1O | · | · | 48 | – | – | 85
C[C@@H]1CN([C@@H](C)CO)C(=O)c2cc(NC(=O)C3CC3)ccc2O[C@H]1CN(C)C(=O)Nc1ccc(F)cc1 | – | · | · | – | – | ·
O=C(O)c1ccc(/C=N/Nc2ccc(C(F)(F)F)cn2)cc1 | · | · | – | · | · | –
COc1cc(/C=N/Nc2ccc(C(F)(F)F)cn2)ccc1O | · | · | 31 | · | · | –
CC(=O)N1CCN(Cc2cc(=O)oc3cc(C)c(C)cc23)CC1 | – | – | – | – | – | ·
Cc1cc2oc(=O)cc(CN3CCC(C)CC3)c2cc1C | – | – | – | – | 41 | –
C[C@@H]1CN([C@@H](C)CO)C(=O)c2cc(NC(=O)Nc3ccccc3)ccc2O[C@@H]1CN(C)S(=O)(=O)c1ccc(Cl)cc1 | – | – | · | – | – | ·
Cc1ccc(S(=O)(=O)N(C)C[C@H]2Oc3ccc(NC(=O)C4CC4)cc3CC(=O)N([C@H](C)CO)C[C@@H]2C)cc1 | 15 | – | · | – | – | ·
C[C@@H]1CN([C@@H](C)CO)C(=O)c2cc(NC(=O)Cc3cn(C)c4ccccc34)ccc2O[C@@H]1CN(C)S(=O)(=O)c1ccc(Cl)cc1 | – | – | · | – | – | ·
C[C@@H]1CN([C@H](C)CO)C(=O)c2cc(NC(=O)Cc3ccccc3)ccc2O[C@@H]1CN(C)S(=O)(=O)c1ccc(Cl)cc1 | – | – | · | 99[16.7 µM] | – | ·
SMILES | PglD DTNB | UUG fidelity | Wnt bcat act | miR-122 sensor | esBAF inh | MITF act
C[C@@H]1CN([C@@H](C)CO)C(=O)c2cc(NC(=O)Cc3ccccc3)ccc2O[C@H]1CN(C)S(=O)(=O)c1ccc(Cl)cc1 | – | – | · | – | – | ·
C[C@@H]1CN([C@H](C)CO)C(=O)c2cc(NC(=O)Cc3cn(C)c4ccccc34)ccc2O[C@@H]1CN(C)S(=O)(=O)c1ccc(Cl)cc1 | – | – | · | 101[16.7 µM] | – | ·
C[C@@H]1CN([C@H](C)CO)C(=O)c2cc(NC(=O)Nc3ccccc3)ccc2O[C@@H]1CN(C)S(=O)(=O)c1ccc(Cl)cc1 | – | – | · | 100[16.7 µM] | – | ·
C/C=C/c1cnc2c(c1)C(=O)N([C@H](C)CO)C[C@@H](C)[C@@H](CN(C)C(=O)Nc1ccc(OC)cc1)O2 | – | – | · | – | – | ·
C=CCn1c(SCC(N)=O)nc2scc(-c3ccc(C)o3)c2c1=O | – | – | 48 | · | · | –
C=CCn1c(SCc2ccccc2)nc2scc(-c3ccc(C)o3)c2c1=O | – | – | · | – | – | –
CCS(=O)(=O)Nc1ccc2c(c1)C(=O)N(C)[C@H]1CC[C@@H](CC(=O)N3CCN(C)CC3)O[C@H]1CO2 | – | · | · | – | – | ·
Cc1[nH]nc(N=CC2=C(O)CC(C)(C)CC2=O)c1-c1ccccc1 | – | – | – | – | 45 | –

Screens deposited in PubChem by Broad Institute.
